Each structure is given as a SMILES string. Structures can show the parent of a compound that is named as a salt.

Chains of the proteins cited; added tags and fusions are not shown.
UniProt P27338, whole entry: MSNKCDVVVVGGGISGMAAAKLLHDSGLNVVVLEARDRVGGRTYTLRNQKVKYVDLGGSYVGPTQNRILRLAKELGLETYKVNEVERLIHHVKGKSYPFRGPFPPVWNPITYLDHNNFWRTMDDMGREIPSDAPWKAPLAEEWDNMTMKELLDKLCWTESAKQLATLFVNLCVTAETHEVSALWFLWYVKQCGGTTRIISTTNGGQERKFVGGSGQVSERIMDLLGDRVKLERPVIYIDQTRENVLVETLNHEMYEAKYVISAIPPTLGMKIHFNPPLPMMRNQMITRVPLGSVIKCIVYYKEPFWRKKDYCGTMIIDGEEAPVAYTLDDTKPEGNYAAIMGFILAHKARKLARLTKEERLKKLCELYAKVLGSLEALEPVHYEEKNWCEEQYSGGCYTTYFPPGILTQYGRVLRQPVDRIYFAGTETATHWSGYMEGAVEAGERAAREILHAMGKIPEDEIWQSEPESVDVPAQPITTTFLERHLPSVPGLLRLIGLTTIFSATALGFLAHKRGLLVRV
UniProt P21397, whole entry: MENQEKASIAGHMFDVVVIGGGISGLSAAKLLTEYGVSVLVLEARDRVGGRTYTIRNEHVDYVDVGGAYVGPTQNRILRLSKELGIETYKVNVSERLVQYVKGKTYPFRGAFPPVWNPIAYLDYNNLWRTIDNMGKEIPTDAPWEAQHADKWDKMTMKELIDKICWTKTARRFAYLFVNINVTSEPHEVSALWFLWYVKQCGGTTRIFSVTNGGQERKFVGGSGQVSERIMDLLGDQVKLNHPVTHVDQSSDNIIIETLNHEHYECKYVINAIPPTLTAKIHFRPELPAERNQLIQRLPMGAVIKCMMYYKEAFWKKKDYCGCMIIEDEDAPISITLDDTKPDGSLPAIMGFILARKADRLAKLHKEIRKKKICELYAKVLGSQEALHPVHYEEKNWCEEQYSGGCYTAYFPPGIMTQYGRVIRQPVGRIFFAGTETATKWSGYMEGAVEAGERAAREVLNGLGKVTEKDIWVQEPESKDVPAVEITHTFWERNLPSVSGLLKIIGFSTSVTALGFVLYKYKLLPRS

One assay deals with MAO-B (Homo sapiens (Human), UniProt P27338). In words: Monoamine oxidase assay (kynuramine to 4-hydroxyquinoline fluorescence), MAO-B. The format is biochemical. Conditions: Table 1.
The target of a further assay is MAO-A (Homo sapiens (Human), UniProt P21397). In words: Monoamine oxidase assay (kynuramine to 4-hydroxyquinoline fluorescence), MAO-A. The format is biochemical. The settings on record: Table 1.

Broadly, the Ki is a measure of affinity in units of concentration, obtained from inhibition or displacement. In turn, `CN1CCN(C(=O)CN[C@H]2C[C@@H]2c2ccc(-c3ccc(F)cc3)cc2)CC1` (relative stereo) showed a Ki at MAO-B of 40.4 µM.
As for `CC(C)(C)NC(=O)CN[C@H]1C[C@@H]1c1ccccc1` (relative stereo) [Example 6, N-(tert-butyl)-2-{[(trans)-2-phenylcyclopropyl]amino}acetamide], the Ki at MAO-A was greater than 50 µM.
`CN1CCN(C(=O)CN[C@H]2C[C@@H]2c2ccccc2)CC1` (relative stereo) [Example 22, 1-(4-methylpiperazin-1-yl)-2-((trans)-2-phenylcyclopropylamino)ethanone] registered a Ki at MAO-B of 31 µM.
In the case of `O=C(CN[C@H]1C[C@@H]1c1ccc(OCc2ccccc2)cc1)NC1CC1` (relative stereo) [Example 27, 2-((trans)-2-(4-(benzyloxy)phenyl)cyclopropylamino)-N-cyclopropylacetamide], the figures for the inhibition constant (Ki) on MAO-A and on MAO-B were 4.47 µM and 1.25 µM, respectively.
In the case of `CN1CCN(C(=O)CN[C@H]2C[C@@H]2c2ccc(OCCc3ccccc3)cc2)CC1` (relative stereo) [Example 34, 1-(4-methylpiperazin-1-yl)-2-((trans)-2-(4-phenethoxyphenyl)cyclopropylamino)ethanone], the Ki amounted to 39 µM at MAO-A and 24.7 µM at MAO-B.
On to `CN1CCN(C(=O)CN[C@H]2C[C@@H]2c2ccc(-c3cccc(C#N)c3)cc2)CC1` (relative stereo) [Example 40, 4′-((trans)-2-(2-(4-methylpiperazin-1-yl)-2-oxoethylamino)cyclopropyl)biphenyl-3-carbonitrile dihydrochloride], for which affinity on MAO-B was put at a Ki of 18.2 µM.
In turn, `CN1CCN(C(=O)CN[C@H]2C[C@@H]2c2ccc(-c3cccc(C(F)(F)F)c3)cc2)CC1` (relative stereo) [Example 43, 1-(4-methylpiperazin-1-yl)-2-((trans)-2-(3′-(trifluoromethyl)biphenyl-4-yl)cyclopropylamino)ethanone dihydrochloride] yielded a Ki on MAO-B of 26.1 µM.
At MAO-A, `CN1CCN(C(=O)CN[C@H]2C[C@@H]2c2ccc(-c3cc(Cl)cc(Cl)c3)cc2)CC1` (relative stereo) [Example 45, 2-((trans)-2-(3′,5′-dichlorobiphenyl-4-yl)cyclopropylamino)-1-(4-methylpiperazin-1-yl)ethanone dihydrochloride] came in with a Ki of 8.6 µM.
Same read-out and setting: the value for `CN1CCN(C(=O)CN[C@H]2C[C@@H]2c2ccc(-c3ccccc3C(F)(F)F)cc2)CC1` (relative stereo) [Example 50, 1-(4-methylpiperazin-1-yl)-2-((trans)-2-(2′-(trifluoromethyl)biphenyl-4-yl)cyclopropylamino)ethanone dihydrochloride] was 25 µM.
As to `CN1CCN(C(=O)CN[C@H]2C[C@@H]2c2ccc(C3CC3)cc2)CC1` (relative stereo) [Example 60, 2-((trans)-2-(4-cyclopropylphenyl)cyclopropylamino)-1-(4-methylpiperazin-1-yl)ethanone dihydrochloride], on MAO-B, the affinity, expressed as Ki, was 42.1 µM.

For the origin of these results see patent US8524717B2, “Oxidase inhibitors and their use” (Oryzon Genomics, S.A., priority 2008, dated 2013).
